One experiment concerns the target Aβ1-42 fibres (Homo sapiens, UniProt P05067). Briefly: In vitro inhibition of ThT binding and determination of Ki (fluorescence), Aβ1-42 fibres. To be noted: value used in Cheng-Prusoff equation; read-out: affinity (KdThT) for Aβ1-42 fibers. As to the method:
To obtain fiber assembly, α-syn is incubated in Tris-HCl 50 mM pH7.5, KCl 150 mM at 37° C. under continuous agitation during 4 days. The lyophilized Aβ1-42 was dissolved in 1,1,1,3,3,3-Hexafluoro-2-propanol (HFIP) at 0.2 mg/mL and incubated for 24 h at 37° C. to obtain the complete solubilization. The HFIP is evaporated under nitrogen stream to obtain a dry product. To start the fiber assembly, the dry peptide is resuspended in PBS pH7.4, 10% (v/v) DMSO and incubated at 37° C. for 3 days without agitation.
Protein fibers are systematically observed by electron microscopy (Jeol 1400). The images are recorded with a CCD camera (Gatan Orius). Finally, the percentage of α-syn and Aβ1-42 aggregated into fibers is checked on the pellet after centrifugation at 40000×g for 20 min and determination of the concentration of soluble protein/peptide remaining in the supernatant.
(§1) The samples are incubated for 1 h at room temperature (RT) to reach equilibrium. […] From each curve, the IC50 value is measured using the following equation: Y=min+(max−min)/1+([…])^slope

Chains of the proteins cited; added tags and fusions are not shown. Residues count along the entry.
UniProt P05067, 672-713 limits assumed: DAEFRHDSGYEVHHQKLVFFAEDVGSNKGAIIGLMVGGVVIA

For a further experiment, the target named is Tau fibres (Homo sapiens (Human), UniProt P10636). Briefly: In vitro inhibition of ThT binding and determination of Ki (fluorescence), Tau fibres. To be noted: value used in Cheng-Prusoff equation; read-out: affinity (KdThT) for Tau fibers. How it is done:
Tau protein in PBS buffer containing 1 mM DTT is assembled into fiber in the presence of one twelfth of a molar equivalent of heparin at 37° C. under stirring.
as §1

For 1 compound, Kd results are on record in US10906900B2, “Compounds for using in imaging and particularly for the diagnosis of neurodegenerative diseases” (CENTRE NATIONAL DE LA RECHERCHE SCIENTIFIQUE, priority 2016, dated 2021).

`Cc1ccc2c(c1)sc(-c1ccc(N(C)C)cc1)[n+]2C` [ThT, thioflavin T, reference compound]: the figures for the Kd at Aβ1-42 fibres and at Tau fibres were 500 nM and 350 nM, respectively.
